What was measured:
[1] = test system: SCLC cell lines and patient-derived SCLC models; conditions: soft agar, low density, 21 days, analysed by microscopy
[2] = test system: SCLC cell lines; conditions: 3 days treatment

## CCNC(=O)C[C@@H]1N=C(c2ccc(Cl)cc2)c2cc(OC)ccc2-n2c(C)nnc21 [2-[(4S)-6-(4-chlorophenyl)-1-methyl-8-(methyloxy)-4H-[1,2,4]triazolo[4,3-a][1,4]benzodiazepin-4-yl]-N-ethylacetamide]
[1]
  colony formation ability: attenuates colony formation ability
[2]
  cell death (caspase 3/7 activation, PARP cleavage, subG1): induces cell death

— patent US20150238507A1, “BENZODIAZEPINES FOR TREATING SMALL CELL LUNG CANCER” (GlaxoSmithKline LLC, priority 2012, published 2015)
